Yeast mating assay B: variants of the scFv Ab-14

Values reported by Li et al. 2023, doi:10.1038/s41467-023-39022-2 (FLAb copy).

The target is the same throughout: PDVDLGDISGINAS, from the HR2 region of SARS-CoV-2 spike.

Each scFv is VH, a 15-residue (Gly4Ser)3 linker, VL, as in the parent Ab-14, and differs from it in the CDRs of the light chain only.
VH: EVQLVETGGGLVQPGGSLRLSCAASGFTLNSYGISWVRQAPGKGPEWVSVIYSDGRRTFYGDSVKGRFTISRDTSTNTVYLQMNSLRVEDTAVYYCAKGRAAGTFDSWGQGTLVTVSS
VL: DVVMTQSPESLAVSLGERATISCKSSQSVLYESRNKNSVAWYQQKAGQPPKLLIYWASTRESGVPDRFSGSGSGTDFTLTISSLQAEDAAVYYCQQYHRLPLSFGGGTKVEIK

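Phage display of a naive human antibody library on the peptide gave the parent. This is the validation round: designs drawn from the data on random variants, tested in the same kind of assay. Several design methods are mixed in this list. The assay is AlphaSeq: two haploid yeast populations carry antibody and antigen on their surface. The frequency of each diploid, read from paired DNA barcodes, reflects how well the two displayed proteins bind. Scores were corrected for input abundance and mapped to Kd with protein pairs of known affinity run in the same pool. There are six technical replicates.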

Each variant is given by its three light chain CDRs, as the data file delimits them; those of the parent are KSSQSVLYESRNKNSVA, WASTRES, QQYHRLPLS.
Values are log10 of the apparent Kd in nM; lower means stronger binding.
Averages over replicates are reported, and they cover detected replicates only.
Where no diploid with the target was found in any replicate, the entry reads "nd": below detection, most likely a poor binder, though not proof of it.
Entries are sorted by rising average, undetected variants last.
Values of this round are not directly comparable with the first-round values of the same sequences.
The authors averaged sequences with at least three values out of six and counted those with two or fewer as poor binders.
Empty control strains, which show no peptide, gave a signal in 4% of pairings with all light chain designs; the median was 2.64 and 95% of these signals were weaker than 1.59. No background was subtracted. For each scFv, signals with the empty controls are counted beside the result.
The parent sequence was in this pool as ten entries: three were never detected, three once, and four in most replicates, with averages from 0.34 to 2.37.

| # | CDR-L1 | CDR-L2 | CDR-L3 | mean log10 Kd (nM) | replicates with signal | control signals |
|---|---|---|---|---|---|---|
| 1 | KLSQSMLYESRNKNSVA | NASTRMS | QQYHRLPLS | -0.38 | 6/6 | 2/18 |
| 2 | KLSQSQEYESRNKNSVA | NASTRES | QQYHRLPLS | -0.34 | 6/6 | 2/18 |
| 3 | KVSQSHPYEERNANNVA | NASDRES | QQYHRLPLS | -0.33 | 6/6 | 0/18 |
| 4 | KSGQGVLYESRNPNSVA | GASTRES | QQYHRLPLS | -0.31 | 6/6 | 0/18 |
| 5 | KVSLSYLLESRNKNSVA | EASTRES | QQYHRLPLS | -0.30 | 6/6 | 0/18 |
| 6 | YLSQSVLYESRNKNSVA | NASTRLS | QQYHRLPLS | -0.28 | 6/6 | 1/18 |
| 7 | KVPQSQLYESRNKNSVA | NASTRES | QQYHRLPLS | -0.19 | 6/6 | 0/18 |
| 8 | KESQSVLHEWRNKNSVA | DASTRES | QQYHRLPLS | -0.13 | 6/6 | 0/18 |
| 9 | MLDQMDGQMGGNGNNIA | DVNENRI | QQYHRLPLS | -0.10 | 6/6 | 0/18 |
| 10 | KISQSVLYESTNKNSVA | QASTRNS | QQYHRLPLS | -0.04 | 6/6 | 0/18 |
| 11 | KLYQSVGTMSHNKQSIA | DMERRED | QQYHRLPLS | 0.01 | 6/6 | 2/18 |
| 12 | KVSQSGLYESRNKNSVA | NASQRES | QQYHRLPLS | 0.08 | 6/6 | 3/18 |
| 13 | KMEQGGLYESRNKGSVA | GASVRES | QQYHRLPLS | 0.09 | 6/6 | 1/18 |
| 14 | KLQQSVLYESRNKNSVA | QASTRSS | QQYHRLPLS | 0.10 | 6/6 | 2/18 |
| 15 | MMSQVWGMGQRHINNVA | QTSTREE | QQYDRLPLI | 0.16 | 6/6 | 3/18 |
| 16 | KCSQSVLQESRNKNSVA | AASTRES | QQYFRLPLS | 0.19 | 6/6 | 0/18 |
| 17 | KVQQSFLYESRNKMSVA | NASTREE | QQYHRLPLS | 0.19 | 6/6 | 0/18 |
| 18 | KVSQSQLYESRNFWSVA | NASTRES | QQYHRLPLS | 0.21 | 6/6 | 0/18 |
| 19 | QIYQAMHTLMQMKNNVA | DVNERGD | QQYFRLPLS | 0.23 | 6/6 | 1/18 |
| 20 | KVSWLHPYWSRNWNSVA | NASTREQ | QQYHRLPLS | 0.38 | 6/6 | 0/18 |
| 21 | HISDMLGGDHKIAHNIA | NTGVTSR | QQYSRLPLI | 0.42 | 6/6 | 1/18 |
| 22 | KVSEFMRGLMQKTDSIA | DNVTRQN | QQYDRLPLS | 0.43 | 6/6 | 1/18 |
| 23 | SITVLDNPGSQGHNNIA | SGSCRAE | QQYIRLPLI | 0.47 | 6/6 | 6/18 |
| 24 | KISQVAMTTGKLSNSVA | NAYNRVQ | QQYHRLPLS | 0.57 | 3/6 | 0/18 |
| 25 | KLEWSQLYESRNKNSVA | NASQRES | QQYHRLPLS | 0.57 | 6/6 | 0/18 |
| 26 | QVQYAPGESLRHTQSIA | DVNIKDM | QQYARLPLS | 0.61 | 6/6 | 1/18 |
| 27 | KVSQSVLYESRTGNSVA | WASTRES | QQYHRLTLS | 0.63 | 6/6 | 0/18 |
| 28 | KSEQGVLYESRNKNHVA | GASTRES | QQYHRLPLS | 0.65 | 6/6 | 0/18 |
| 29 | TISQSAQQETHNKNSVA | DLNVRGS | QQYDRLPLS | 0.66 | 6/6 | 0/18 |
| 30 | KSLQSVLYESNNKNSVA | HASTRED | QQYHRLPLS | 0.77 | 6/6 | 0/18 |
| 31 | KLRQSTQYESRNQNSVA | WASTRES | QQYHRLPLS | 0.78 | 6/6 | 3/18 |
| 32 | TLYGLTLSMSINKNSVA | EMTTREN | QQYDRLPLA | 0.81 | 6/6 | 0/18 |
| 33 | WLMQSVLYESRNKNSVA | HASLRED | QQYHRLPLS | 0.84 | 6/6 | 2/18 |
| 34 | KLSATYRYESQNKNSIA | EMTTRES | QCYHRLPLS | 0.98 | 6/6 | 0/18 |
| 35 | KSSQSVLYEHRNANSVA | WATTREF | QQYHRLPLS | 1.03 | 2/6 | 0/18 |
| 36 | MFSQSVMYGSFYRNSVA | QTSTRET | QQYDRLPLS | 1.06 | 6/6 | 0/18 |
| 37 | TLTQVTMVESYIKNSVA | QASTRLE | QDYHRLPLS | 1.07 | 6/6 | 1/18 |
| 38 | KLSMTTEMSLKNRNSVA | ELVTRES | QQYNRLPLS | 1.08 | 6/6 | 0/18 |
| 39 | MISQLYNMGQFAINSVA | QASIRNQ | QQYDRLPLM | 1.09 | 6/6 | 1/18 |
| 40 | TISQMTSLFSQSINNVA | EVSTRME | QQYDRLPLA | 1.11 | 6/6 | 0/18 |
| 41 | KMSQENDYEDRNSNSVA | HASTREM | QQYHRLPLS | 1.11 | 6/6 | 0/18 |
| 42 | KSSQSVLYNSRNKQSVA | AASTRES | QQYHRLPLS | 1.25 | 6/6 | 0/18 |
| 43 | KHSISYLGESRNKNSVA | EASTRES | QQYHRLPLS | 1.43 | 6/6 | 0/18 |
| 44 | KISQVAMTTGKHSNSVA | NAYNRVQ | QQYHRLPLS | 1.44 | 6/6 | 1/18 |
| 45 | KLYQSVGTMMHNKQSIA | DMERRED | QQYHRLPLS | 1.44 | 6/6 | 0/18 |
| 46 | NMNVSEDQWPSSKNAIA | QTTCRNL | QQYASLPLS | 1.64 | 6/6 | 0/18 |
| 47 | KLSPIYFDSYGNRQAVA | ENEATSN | QQYSLLPLS | 1.73 | 1/6 | 0/18 |
| 48 | KSSESVLYESENLNSVA | WASTRES | QQYHRLPLS | 1.75 | 6/6 | 1/18 |
| 49 | HMSALTLQGMTHRNSVA | QMTTREN | QQYDRLPLA | 1.78 | 5/6 | 0/18 |
| 50 | TIGQSLMQGIRNRSNVA | EVSQRLN | QQYDRLPLM | 1.84 | 6/6 | 0/18 |
| 51 | KTSQSVMYESRNKNSVA | WASTRES | QQYHNLPLS | 1.89 | 4/6 | 1/18 |
| 52 | KSSQSVLVESRYKNSVA | WASTRES | QQYHRLPLD | 1.96 | 4/6 | 0/18 |
| 53 | MISQLYNMGTFAINSVA | QASIRNE | QQYDRLPLA | 2.20 | 3/6 | 0/18 |
| 54 | KSSQSKWYESRNKNSVA | WASTRGD | QQYHRLPLS | 2.34 | 4/6 | 0/18 |
| 55 | KLSSFHNLESINKSNVA | EMVTREN | QQYDRLPLS | 2.71 | 3/6 | 1/18 |
| 56 | KSSQSELYESRNKNSVA | WASTRES | QQYHRLPLK | 2.99 | 5/6 | 0/18 |
| 57 | KVSQSVLYESRNKSSVA | WASTRES | QQYHRIPLS | 3.03 | 2/6 | 1/18 |
| 58 | QLQLVQNGDTISEYSVA | HAEVSGR | QQYSQLPLI | nd | 0/6 | 0/18 |
| 59 | KWEYSVLGEQRNKNAVA | SASQREQ | QQYHRLPLS | nd | 0/6 | 0/18 |
| 60 | KSSQSVLYESRNKNSVA | WLSQRES | QQYHRLPLW | nd | 0/6 | 0/18 |

The 4 strongest on average among those seen in every replicate, once more:

| CDR-L1 | CDR-L2 | CDR-L3 | mean log10 Kd (nM) | replicates with signal | control signals |
|---|---|---|---|---|---|
| KLSQSMLYESRNKNSVA | NASTRMS | QQYHRLPLS | -0.38 | 6/6 | 2/18 |
| KLSQSQEYESRNKNSVA | NASTRES | QQYHRLPLS | -0.34 | 6/6 | 2/18 |
| KVSQSHPYEERNANNVA | NASDRES | QQYHRLPLS | -0.33 | 6/6 | 0/18 |
| KSGQGVLYESRNPNSVA | GASTRES | QQYHRLPLS | -0.31 | 6/6 | 0/18 |